Experimental data published in publication PMC7959488, “Identify potent SARS-CoV-2 main protease inhibitors via accelerated free energy perturbation-based virtual screening of existing drugs” (Proceedings of the National Academy of Sciences of the …, 2020).

Biological target: SARS-CoV-2 M^pro (Severe acute respiratory syndrome coronavirus 2, UniProt P0DTD1)

Structure (SMILES): OCCN(CCO)c1nc(N2CCCCC2)c2nc(N(CCO)CCO)nc(N3CCCCC3)c2n1 [DIP, dipyridamole]
- UEFEP-ABFE: 1.5 kcal/mol
